Laboratory results as given in patent US20110256072A1, “FOOD AND COMPOSITION EACH COMPRISING PHOSPHORYLATED SACCHARIDE, POLYPHENOL AND FLUORIDE” (EZAKI GLICO CO., LTD., priority 2008, published 2011).
Read-outs that look alike come from different tables or passages of the source.

Legend:
dental caries = conditions: cited from earlier work
[1] = Change over time of pH and soluble calcium in remineralization solutions with addition of hydroxyapatite crystal nuclei; assay type: physicochemical; conditions: in combination with POs-Ca and 0.001% by weight polyphenol; 10 ppm fluoride; pH 6.5, 37° C.

Sodium silicofluoride
Inhibition rate (dental caries; Systemic application, addition of fluoride to city water, 0.6-1 ppm, Permanent tooth): 40-60%

Monofluorophosphate
Inhibition rate (dental caries; Fluoride added dentifrice, 1000 ppm): 15-20%

monofluorophosphoric acid
solubility of both calcium ions and fluoride ions [1]: can be maintained in a neutral range
